Measurements published in PubChem BioAssay AID2716 (Broad Institute, 2010).
This is a selection; strong and weak results do not stand in their true shares. Activity calls are given as the source filed them.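 Rule for the calls: active = every valid replicate shows activation above 250% relative to neutral control wells; inactive = the rest, any valid replicate at or below 250%.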

assay: yeast Mot1-301 growth rescue at high temperature, primary screen, SUMOylation pathway inhibitor project, S. cerevisiae, ATP luminescence, 38.5C (AID 2716);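 note: OY570 slx delta 5 strain wells were the positive control but not used for scaling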; conditions: S. cerevisiae Mot1-301 growth rescue, at 18.8 µM, hits give high values, percent above DMSO median, 100 means doubled

With `CN(C)C(=O)Oc1noc2ccccc12` as the compound, how does the growth rescue read?
Its growth rescue is inactive: 8.89%.

For `COC(=O)c1cc2c(s1)N=C(c1ccccc1)N(C)P2(=O)N1CCOCC1` (stereo not given), which growth rescue is on record?
The growth rescue was inactive: -16.6%.

For `Cc1ccc(OP(=O)(Nc2ccccn2)Oc2ccc(C)cc2)cc1`, which growth rescue is on record?
Its growth rescue is inactive: 129%.

For `CC(=O)NC(SC(=S)N(CC(C)C)CC(C)C)C(Cl)(Cl)Cl` (stereo not given), which growth rescue is on record?
The growth rescue was inactive: -5.48%.

For `O=C(OC1CN2CCC1CC2)c1ccccc1` (stereo not given), which growth rescue is on record?
Its growth rescue is inactive: 30.1%.

Which growth rescue does the source give for `CCC(=O)N1C2C3N(C(=O)CC)C1C1N(C(=O)CC)C(C(N1C(=O)CC)N3C(=O)CC)N2C(=O)CC` here?
Its growth rescue is inactive: 5.09%.

For `O=P(Nc1nc2ccccc2s1)(c1ccccc1)c1ccccc1`, which growth rescue is on record?
Its growth rescue is inactive: -14.5%.

For `C[C@H]1OP(=O)(Oc2ccccc2)[C@H](O)[C@H](O)[C@H]1N=[N+]=[N-]` (stereo not given in full), which growth rescue is on record?
Its growth rescue is inactive: 26%.

Which growth rescue does the source give for `O=P(Nc1ccccn1)(c1ccc(Br)cc1)c1ccc(Br)cc1` here?
The growth rescue was inactive: 285%.

Which growth rescue does the source give for `CN(C)C1(CNC(=O)c2ccc(Cl)c(S(N)(=O)=O)c2)CCCCC1` here?
The growth rescue was inactive: 63.1%.

For `C(Cc1nn[nH]n1)Cc1nn[nH]n1`, which growth rescue is on record?
Its growth rescue is inactive: -17.8%.

With `Nc1ccc([As](=O)(O)c2ccc([N+](=O)[O-])cc2)cc1` as the compound, how does the growth rescue read?
Its growth rescue is inactive: 8.73%.

With `O=C(OC1CN2CCC1CC2)c1cccc(Cl)c1` (stereo not given) as the compound, how does the growth rescue read?
Its growth rescue is inactive: 7.34%.

With `O=[N+]([O-])c1ccc(O)c(/C=N/Nc2ccc([N+](=O)[O-])cc2[N+](=O)[O-])c1` as the compound, how does the growth rescue read?
The growth rescue was inactive: 62.5%.

Which growth rescue does the source give for `O=[N+]([O-])c1ncn(CCn2cnc([N+](=O)[O-])n2)n1` here?
The growth rescue was inactive: 2.48%.

Which growth rescue does the source give for `CC(=O)NC(SC(=S)N(C)C)C(Cl)(Cl)Cl` (stereo not given) here?
Its growth rescue is inactive: -14.7%.

With `O=[As](O)(c1ccccc1)c1ccc(O)cc1` as the compound, how does the growth rescue read?
The growth rescue was inactive: -21%.

For `c1nnnn1CCn1cnnn1`, which growth rescue is on record?
The growth rescue was inactive: 188%.

For `CC(C)C(=O)NC(Sc1ccccc1)C(Cl)(Cl)Cl` (stereo not given), which growth rescue is on record?
Its growth rescue is inactive: -18.4%.

With `O=P(Nc1nccs1)(c1ccccc1)c1ccccc1` as the compound, how does the growth rescue read?
The growth rescue was inactive: -0.0125%.
